The numbers were not newly measured in patent US5891842A, “Methodology for eliciting an analgesic response in a living subject” (priority 1996, dated 1999), which cites them from elsewhere.

The conditions of this data set: cited from earlier work.

With `CN1CC[C@]23c4c5ccc(O)c4O[C@H]2C(=O)CC[C@H]3[C@H]1C5` [Hydromorphone, dihydromorphinone], where the note is “analgesic effects after subcutaneous administration”, the “DURATION OF ACTION” value is 4 to 5 h. Also, the “DOSE: amount given subcutaneously that produces approximately the same analgesic effects as 10 mg of morphine” value (subcutaneous) is recorded as 1.5 mg.
